According to PMC10444810, “Induction of open-form bile canaliculus formation by hepatocytes for evaluation of biliary drug excretion” (Communications Biology, 2023):

Tested on: icHep and PXB-cells monolayers

tetramethylrhodamine-dextran [TD4]
permeability in the icHep monolayer compared to the control: decreased significantly | permeation from the donor to receiver chambers: Minimal permeation
